In the test the target is Heat shock protein HSP 90-alpha (Homo sapiens, UniProt P07900).

pKd: −log10 of the molar value.

`COC(=O)c1c(O)cc(O)c(Cl)c1CCc1nccn1Cc1ccccc1Br` gave a negative logarithm of the Kd (pKd) of 4.68.
